Results: US11203777B2, “Method of preparing sterilized compositions for stabilization of extracellular nucleic acids” (Qiagen GmbH, priority 2015, dated 2021)

Assay: HPLC quantification of caspase inhibitor in stabilization reagent before and after gamma irradiation
Format: physicochemical
Experimental: Caspase inhibitor (Q-VD-OPh) was dissolved and diluted in DMSO for generation of a standard curve. Concentrations of 7.5, 15, 30 and 60 μg/ml were used to generate the standard curve.
Stabilization reagents containing a mixture of caspase inhibitor, EDTA, DMPA and PEG were tested before and after gamma irradiation. Unique peaks for caspase inhibitor were identified and compared to the standard curve for total quantification of caspase inhibitor. The concentration of caspase inhibitor was determined before and after irradiation, and these concentrations were compared for relative quantification.
For the production of PAXgene Blood ccfDNA Alpha blood collection tubes (Alpha BCT), BD standard tubes for 10 ml blood draw were filled with 1.3-1.7 ml ccfDNA stabilization reagent. The exemplary stabilization reagents tested comprised a mixture of caspase inhibitor (Q-VD-OPh), K2EDTA, DMPA, PEG300 and PEG10000, according to PCT/EP2015/055699. A vacuum was applied to the tubes to allow for a 10.25 ml blood draw. Tubes were sterilized by gamma irradiation using Cobalt-60 as energetic gamma ray source in a range of 5 to 35 kGy. […]
Stabilization reagents were produced with or without the addition of radical scavengers and sterilized in bulk by gamma irradiation. The caspase inhibitor concentration was measured by HPLC before and after irradiation to determine the effect of scavenger addition on caspase inhibitor degradation during sterilization by gamma irradiation.
Stabilization reagents according to PCT/EP2015/055699 were produced with or without the addition of radical scavengers in different concentrations and with different concentrations of caspase inhibitor. PAXgene Blood ccfDNA Alpha tubes were produced by filling 1.7 ml of the respective stabilization reagent into a standard Vacutainer. Tubes were sterilized by gamma irradiation with different energy levels. The caspase inhibitor concentration was measured by HPLC before and after irradiation (see Table 7 below).

CC(=O)N[C@@H](CS)C(=O)O [N-acetyl-L-cysteine]
HPLC Testing [C-Inh] (scavenger 0.5 mg/ml, casp-inh. 5 μM, 0 kGy): 19.3 µg/mL | HPLC Testing [C-Inh] (scavenger 0.5 mg/ml, casp-inh. 5 μM, 10 kGy): 16.2 µg/mL | HPLC Testing [C-Inh] (scavenger 0.5 mg/ml, casp-inh. 5 μM, 20 kGy): 13.7 µg/mL | HPLC Testing [C-Inh] (scavenger 0.5 mg/ml, casp-inh. 5 μM, 30 kGy): 12.3 µg/mL | HPLC Testing [C-Inh] (scavenger 1 mg/ml, casp-inh. 5 μM, 0 kGy): 18.5 µg/mL | HPLC Testing [C-Inh] (scavenger 1 mg/ml, casp-inh. 5 μM, 10 kGy): 15.8 µg/mL | HPLC Testing [C-Inh] (scavenger 1 mg/ml, casp-inh. 5 μM, 20 kGy): 13.4 µg/mL | HPLC Testing [C-Inh] (scavenger 1 mg/ml, casp-inh. 5 μM, 30 kGy): 12.5 µg/mL | HPLC Testing [C-Inh] (scavenger 2 mg/ml, casp-inh. 5 μM, 0 kGy): 19.7 µg/mL | HPLC Testing [C-Inh] (scavenger 2 mg/ml, casp-inh. 5 μM, 10 kGy): 17.2 µg/mL | HPLC Testing [C-Inh] (scavenger 2 mg/ml, casp-inh. 5 μM, 20 kGy): 15.3 µg/mL | HPLC Testing [C-Inh] (scavenger 2 mg/ml, casp-inh. 5 μM, 30 kGy): 14.3 µg/mL | HPLC Testing [C-Inh] (scavenger 2 mg/ml, casp-inh. 10 μM, 0 kGy): 37.8 µg/mL | HPLC Testing [C-Inh] (scavenger 2 mg/ml, casp-inh. 10 μM, 10 kGy): 33.3 µg/mL | HPLC Testing [C-Inh] (scavenger 2 mg/ml, casp-inh. 10 μM, 20 kGy): 30.7 µg/mL | HPLC Testing [C-Inh] (scavenger 2 mg/ml, casp-inh. 10 μM, 30 kGy): 27.6 µg/mL | HPLC Testing [C-Inh] (scavenger 2 mg/ml, casp-inh. 15 μM, 0 kGy): 56.0 µg/mL | HPLC Testing [C-Inh] (scavenger 2 mg/ml, casp-inh. 15 μM, 10 kGy): 50.0 µg/mL | HPLC Testing [C-Inh] (scavenger 2 mg/ml, casp-inh. 15 μM, 30 kGy): 41.2 µg/mL | HPLC Testing [C-Inh] (scavenger 4 mg/ml, casp-inh. 5 μM, 0 kGy): 16.6 µg/mL | HPLC Testing [C-Inh] (scavenger 4 mg/ml, casp-inh. 5 μM, 10 kGy): 14.8 µg/mL | HPLC Testing [C-Inh] (scavenger 4 mg/ml, casp-inh. 5 μM, 20 kGy): 13.4 µg/mL | HPLC Testing [C-Inh] (scavenger 4 mg/ml, casp-inh. 5 μM, 30 kGy): 12.8 µg/mL
